The values that follow come from publication PMC12392461, “Beyond Estrogenicity: A Comparative Assessment of Bisphenol A and Its Alternatives in In Vitro Assays Questions Safety of Replacements” (Environmental Science & Technology, 2025).

Structures are written as SMILES.

The test relates to Tox21 assays. The test is described as follows: Re-evaluated Tox21 data (Adamovsky et al.), REPBPA and SRbaseline.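 Also: published Tox21 results reanalysed with a revised model predicting baseline toxicity.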 Particulars: TOX21_PPARg_BLA_antagonist_ratio; Relative Effect Potency.
`Oc1ccc(C(c2ccc(O)cc2)(C(F)(F)F)C(F)(F)F)cc1` [BPAF, 4,4'-(1,1,1,3,3,3-Hexafluoropropane-2,2-diyl)diphenol] returned an REPBPA of 0.32.

In the case of `Cc1cc(C(C)(C)c2ccc(O)c(C)c2)ccc1O` [BPC], the REPBPA was 0.60.

`CC(c1ccc(O)cc1)c1ccc(O)cc1` [BPE, 4,4′-Ethylidenbisphenol]: the REPBPA came out at 0.18.

In the case of `Oc1ccc(Cc2ccc(O)cc2)cc1` [BPF, Bis(4-hydroxyphenyl)methane], the REPBPA is recorded as 0.19.

`Oc1ccc(Sc2ccc(O)cc2)cc1` [BPT, 4,4'-Thiodiphenol] returned an REPBPA of 0.69.

Regarding `CC(C)(c1cc(Cl)c(O)c(Cl)c1)c1cc(Cl)c(O)c(Cl)c1` [TCBPA, 2,2',6,6'-Tetrachlorobisphenol A], the REPBPA was 4.59.
